{
  "source": "patent US20250064957A1",
  "about": "“EXATECAN DERIVATIVES, LINKER-PAYLOADS, AND CONJUGATES AND THEREOF” (priority 2021, published 2025)",
  "key": {"[1]": {"tested_on": "Capan-1 human pancreatic cancer cells (HER2 low)", "assay": "Capan-1 human pancreatic cancer xenograft model (1)", "type": "in vivo", "details": "BALB/c nude mice, 5 mg/kg intravenously", "method": "5×10^6 Capan-1 human pancreatic cancer cells (HER2 low) were inoculated subcutaneously in the right flank in BALB/c nude mice to generate xenograft model. After 8 days, when tumor volume reached 178 mm^3 on average, the tumor bearing mice were administrated intravenously of LC1184(8) and other five different conjugates at 5 mg/kg. The tumor volume was measured twice weekly with calipers."}, "[2]": {"tested_on": "JIMT-1 human breast cancer cells (HER2 medium)", "assay": "JIMT-1 human breast cancer xenograft model", "type": "in vivo", "details": "SCID Beige mice, 5 mg/kg intravenously", "method": "5×10^6 JIMT-1 human breast cancer cells (HER2 medium) were inoculated subcutaneously in the right flank in SCID Beige mice. After 7 days, when tumor volume reached 142 mm^3 on average, the tumor bearing mice were assigned and administrated intravenously of LC1184(8) and other five different conjugates at 5 mg/kg. The tumor volume was measured twice weekly with calipers. […] The conjugate of the present invention achieves great efficacy in lower DAR."}, "[3]": {"tested_on": "MDA-MB-468 HER2-negative cell line", "assay": "Effect of HER2-targeting conjugates on cell proliferation (CellTiter-Glo), MDA-MB-468", "type": "cell-based", "details": "MDA-MB-468, 120 h, up to 200 nM", "method": "Study Purpose: Cell viability was detected by CellTiter-Glo assay to evaluate the effects of the ADCs on the proliferation of two high HER2 tumor cell lines SK-BR-3, NCI-N87 and a HER2-negative tumor cell line MDA-MB-468, and to analyze the effects of the ADCs on the proliferation of tumor cells.\n• (1) Microscopic examination of cells • (2) Digestion: digested using 2 mL 0.25% trypsin for 3 minutes; • (3) Centrifuge: 1000 rpm for 5 min; • (4) Cell counting • A. Cell dilution: • B. Cell plating: in 100 μl/well • C. Incubation: 37° C., 5% CO2, overnight\n• (1) Microscopic examination • (2) Drug preparation: • A. Preparation of Buffer for preparation of samples: the desired amount of Buffer for preparation of samples was prepared using the culture medium (10% FBS) for the testing cells; • B. Sample preparation: the sample was diluted from the first concentration to the desired concentration in a 96-well deep-well Plate.\nPositive control Puromycin: A stock solution of 10 mg/ml was used, and diluted with the cell medium. A dilution of 100-fold was preformed, and then a dilution of 10-fold was preformed when applying the compounds to reach the testing concentration 5 μg/ml for puromycin. • (4) Application of the compounds: for each concentration of the diluted series, the compound was applied in triplicate. […]"}, "[4]": {"tested_on": "MDA-MB-468 cells in co-culture with SK-BR-3", "assay": "Bystander killing in co-culture of SK-BR-3 and MDA-MB-468-Luc-GFP", "type": "cell-based", "details": "SKBR3:MDA-MB-468-Luc-GFP 4:1, 50, 10 and 1 nM, 120 h; GFP fluorescence and luciferase luminescence", "method": "• 1) Cell collection and counting. • 2) The cell density was adjusted to 1*10^5 cells/ml • 3) The cell mixture was prepared, wherein SKBR3: MDA-MB-468-Luc-GFP=4:1, 5 ml.\nCell plating: 1*10^4 cells/well, 100 μl/well\nTest samples: Three final concentrations are prepared from dilution with the cell medium: 50, 10 and 1 nM. • 4) The drug was administered the next day, 100 μl/well. • 5) Incubate in a 5% CO2 incubator at 37° C. for 120h. • (1) washed by PBS to remove dead cells, and detected by Cytation3 plate reader; • (2) Biyuntian luciferase reporter gene assay kit: lysed in 37° C. incubator for 10 min using 100 μl lysis buffer. Centrifuged at 2000 rpm for 5 minutes. 100 μl supernatant was taken. 100 μl substrate was added. The chemiluminescence was detected by microplate reader (gain: 200).\nTwo methods (GFP fluorescence counting and luciferase substrate luminescence method) were used for determination of bystander killing effects (FIG. 4a, 4b and FIG. 5)."}},
  "data": [
    {"substance": "LC302-2-4(4)", "values": [
      {"measurement": "efficacy (tumor volume) in Capan-1 CDX model (1)", "setting": "[1]", "result": "comparable efficacy to LC1184(8)"},
      {"measurement": "efficacy (tumor volume) in JIMT-1 CDX model", "setting": "[2]", "result": "better efficacy than LC1184(8)"},
      {"measurement": "cytotoxicity in HER2 negative cell MDA-MB-468", "setting": "[3]", "result": "No cytotoxicity was observed"},
      {"measurement": "bystander killing effect", "setting": "[4]", "result": "outstanding bystander killing effects"}
    ]}
  ]
}
